Experimental findings from US7405036B2, “Process for reducing pathogens in a biological sample and removing a sample pellet from a sample tube” (priority 2001, dated 2008) are described below.

This data set deals with cryopreserved gaur (Bos gaurus) sperm. Kind of data set: Survival of thawed gaur sperm with soy-based trypsin inhibitor at recommended concentration. The following applies: 1.4 mg of the inhibitor for every 1 mg of trypsin.

B1: soy-based trypsin inactivator: soy-based trypsin inhibitor product (Sigma Chemical Company) added to the 90% layer (protein, UniProt P01070 25-205, looked up)
Trypsin inhibitor A: DFVLDNEGNPLENGGTYYILSDITAFGGIRAAPTGNERCPLTVVQSRNELDKGIGTIISSPYRIRFIAEGHPLSLKFDSFAVIMLCVGIPTEWSVVEDLPEGPAVKIGENKDAMDGWFRLERVSDDEFNNYKLVFCPQQAEDDKCGDIGISIDHDDGTRRLVVSKNKPLVVQFQKLDKESL
With B1, the sperm survival post-exposure result is on record as “not surviving beyond one hour post-exposure”.
